Measurements reported in ChEMBL document CHEMBL3286161, “Prostanoid receptor EP2 as a therapeutic target” (J Med Chem, 2014).

Protein sequences, listed by entry. Tags and fused reporters are not part of them. Lines headed by an entry give the natural chain unless they say otherwise; changes in a name come on top.
UniProt P43116: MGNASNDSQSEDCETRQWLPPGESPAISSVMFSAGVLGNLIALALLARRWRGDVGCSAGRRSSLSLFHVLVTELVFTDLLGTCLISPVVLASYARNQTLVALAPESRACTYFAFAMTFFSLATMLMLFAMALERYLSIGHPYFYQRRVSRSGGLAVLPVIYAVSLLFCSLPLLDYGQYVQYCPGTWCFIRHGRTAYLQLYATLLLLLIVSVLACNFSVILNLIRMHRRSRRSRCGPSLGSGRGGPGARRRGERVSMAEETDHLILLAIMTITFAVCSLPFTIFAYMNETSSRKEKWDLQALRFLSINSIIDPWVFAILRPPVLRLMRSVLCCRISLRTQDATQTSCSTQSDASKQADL

Legend:
[1] = Half life in mouse plasma
in vivo = conditions: mouse, brain
[2] = molecular target: T1, Prostaglandin E2 receptor EP2 subtype (Homo sapiens, UniProt P43116); experiment: Binding affinity to EP2 receptor (unknown origin) by competitive binding assay
[3] = molecular target: T1, Prostaglandin E2 receptor EP2 subtype; experiment: Agonist activity at EP2 receptor (unknown origin) by functional assay

Work on `COc1cc(/C=C/C(=O)NCCn2c(C(F)(F)F)cc3ccccc32)cc(OC)c1OC` yielded a half-life [1] of 1.6 h and a Kp (in vivo) of 1.6.
For `CCCCC[C@H](O)/C=C/[C@H]1[C@H](O)CC(=O)[C@@H]1C/C=C\CCCC(=O)O` [DINOPROSTONE], the Ki [2] was 38 nM and the EC50 [3] was 2.1 nM.
